# B1: PARP4 (Homo sapiens) (protein)
# chain: MVMGIFANCIFCLKVKYLPQQQKKKLQTDIKENGGKFSFSLNPQCTHIILDNADVLSQYQLNSIQKNHVHIANPDFIWKSIREKRLLDVKNYDPYKPLDITPPPDQKASSSEVKTEGLCPDSATEEEDTVELTEFGMQNVEIPHLPQDFEVAKYNTLEKVGMEGGQEAVVVELQCSRDSRDCPFLISSHFLLDDGMETRRQFAIKKTSEDASEYFENYIEELKKQGFLLREHFTPEATQLASEQLQALLLEEVMNSSTLSQEVSDLVEMIWAEALGHLEHMLLKPVNRISLNDVSKAEGILLLVKAALKNGETAEQLQKMMTEFYRLIPHKGTMPKEVNLGLLAKKADLCQLIRDMVNVCETNLSKPNPPSLAKYRALRCKIEHVEQNTEEFLRVRKEVLQNHHSKSPVDVLQIFRVGRVNETTEFLSKLGNVRPLLHGSPVQNIVGILCRGLLLPKVVEDRGVQRTDVGNLGSGIYFSDSLSTSIKYSHPGETDGTRLLLICDVALGKCMDLHEKDFSLTEAPPGYDSVHGVSQTASVTTDFEDDEFVVYKTNQVKMKYIIKFSMPGDQIKDFHPSDHTELEEYRPEFSNFSKVEDYQLPDAKTSSSTKAGLQDASGNLVPLEDVHIKGRIIDTVAQVIVFQTYTNKSHVPIEAKYIFPLDDKAAVCGFEAFINGKHIVGEIKEKEEAQQEYLEAVTQGHGAYLMSQDAPDVFTVSVGNLPPKAKVLIKITYITELSILGTVGVFFMPATVAPWQQDKALNENLQDTVEKICIKEIGTKQSFSLTMSIEMPYVIEFIFSDTHELKQKRTDCKAVISTMEGSSLDSSGFSLHIGLSAAYLPRMWVEKHPEKESEACMLVFQPDLDVDLPDLASESEVIICLDCSSSMEGVTFLQAKQIALHALSLVGEKQKVNIIQFGTGYKELFSYPKHITSNTMAAEFIMSATPTMGNTDFWKTLRYLSLLYPARGSRNILLVSDGHLQDESLTLQLVKRSRPHTRLFACGIGSTANRHVLRILSQCGAGVFEYFNAKSKHSWRKQIEDQMTRLCSPSCHSVSVKWQQLNPDVPEALQAPAQVPSLFLNDRLLVYGFIPHCTQATLCALIQEKEFRTMVSTTELQKTTGTMIHKLAARALIRDYEDGILHENETSHEMKKQTLKSLIIKLSKENSLITQFTSFVAVEKRDENESPFPDIPKVSELIAKEDVDFLPYMSWQGEPQEAVRNQSLLASSEWPELRLSKRKHRKIPFSKRKMELSQPEVSEDFEEDGLGVLPAFTSNLERGGVEKLLDLSWTESCKPTATEPLFKKVSPWETSTSSFFPILAPAVGSYLPPTARAHSPASLSFASYRQVASFGSAAPPRQFDASQFSQGPVPGTCADWIPQSASCPTGPPQNPPSSPYCGIVFSGSSLSSAQSAPLQHPGGFTTRPSAGTFPELDSPQLHFSLPTDPDPIRGFGSYHPSASSPFHFQPSAASLTANLRLPMASALPEALCSQSRTTPVDLCLLEESVGSLEGSRCPVFAFQSSDTESDELSEVLQDSCFLQIKCDTKDDSILCFLEVKEEDEIVCIQHWQDAVPWTELLSLQTEDGFWKLTPELGLILNLNTNGLHSFLKQKGIQSLGVKGRECLLDLIATMLVLQFIRTRLEKEGIVFKSLMKMDDASISRNIPWAFEAIKQASEWVRRTEGQYPSICPRLELGNDWDSATKQLLGLQPISTVSPLHRVLHYSQG
# Substrate: NC(=O)c1ccc[n+]([C@@H]2O[C@H](COP(=O)([O-])OP(=O)(O)OC[C@H]3O[C@@H](n4cnc5c(N)ncnc54)[C@H](O)[C@@H]3O)[C@@H](O)[C@H]2O)c1
# Assay: purified protein, by the assay type
# Conditions: other: PARP4 ART
protein,measurement,value
B1,Km,92 ± 17 µM

# From paper PMC5934274
